Data: PubChem BioAssay AID493011 (Sanford-Burnham Center for Chemical Genomics, 2011)
The entries are a selection whose mix differs from that of the whole data set. Active and inactive are the calls of the source.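 Rule for the calls: active = at least 40% inhibition at 20 µM here, with at most 30% in a related deaminase screen; inactive = the rest.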

Amino acid sequences for entries named in this document (tags omitted).
UniProt P31941, whole entry: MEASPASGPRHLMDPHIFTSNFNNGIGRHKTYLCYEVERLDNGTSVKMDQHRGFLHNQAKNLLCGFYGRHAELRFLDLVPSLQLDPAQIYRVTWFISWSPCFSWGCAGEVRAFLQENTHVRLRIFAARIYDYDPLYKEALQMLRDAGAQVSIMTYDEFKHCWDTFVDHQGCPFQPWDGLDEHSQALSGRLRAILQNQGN

Target: DNA dC->dU-editing enzyme APOBEC-3A (Homo sapiens) (UniProt P31941)
Experiment: blockers of A3A cytidine deamination on DNA – biochemical, FAM/TAMRA oligo cleavage fluorescence, selectivity assay for APOBEC3G inhibitor project, primary screen (AID 493011);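 note: plate controls were A3A with DMSO for no effect and wells lacking A3A enzyme for full effect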
Details: recombinant A3A, FAM/TAMRA ssDNA deamination fluorescence; at 20 µM; active compounds read high

Question: `O=C(NCC1(N2CCCCC2)CCCCC1)c1ccc(OC(F)F)cc1` was tested. Which inhibition did it give?
Answer: inactive: 3.46%

Question: `N#CC1(Nc2ccccc2)CCN(CCc2ccccc2)CC1` was tested. Which inhibition did it give?
Answer: inactive: -1.98%

Question: For `CCN1CCC(Nc2ccc(Cl)cc2)CC1`, which inhibition is on record?
Answer: inactive: -9.67%

Question: With `CSc1ccc(C(=O)NCC2(N3CCOCC3)CCCCC2)cc1` as the molecule, how does the inhibition read?
Answer: inactive: -2.5%

Question: How did the inhibition turn out when `O=C(NCC1(N2CCCCC2)CCCCC1)c1cccc([N+](=O)[O-])c1` was run?
Answer: inactive: 4.82%

Question: `O=C(NCC1(N2CCCCC2)CCCCC1)c1cccc(C(F)(F)F)c1` was tested. Which inhibition did it give?
Answer: inactive: -2.83%

Question: `COc1cc(C(=O)NCC2(N3CCCCC3)CCCCC2)ccc1OC(F)F` was tested. Which inhibition did it give?
Answer: inactive: 26.2%

Question: `O=C(NCC1(N2CCOCC2)CCCCC1)c1cc(=O)[nH]c2ccccc12` was tested. Which inhibition did it give?
Answer: inactive: -8.74%

Question: How did the inhibition turn out when `CN1CCN(CCOC(=O)C(O)(c2ccccc2)c2ccccc2)CC1` was run?
Answer: inactive: -1.18%

Question: How did the inhibition turn out when `COc1ccc(NC2CCN(C(=O)OC(C)(C)C)CC2)cc1` was run?
Answer: inactive: 1.69%

Question: How did the inhibition turn out when `CC(C)c1ccc(C(=O)NCC2(N3CCOCC3)CCCCC2)cc1` was run?
Answer: inactive: 1.15%

Question: Which inhibition does the source give for `CC(C)c1ccc(NC2CCN(C(=O)OC(C)(C)C)CC2)cc1` here?
Answer: inactive: 6.94%

Question: With `CN(C)c1cccc(C(=O)NCC2(N3CCCCC3)CCCCC2)c1` as the molecule, how does the inhibition read?
Answer: inactive: 0.836%

Question: Which inhibition does the source give for `COc1ccc(CN(CCCl)CCCl)cc1Cl` here?
Answer: inactive: -5.85%

Question: With `O=C(NCC1(N2CCOCC2)CCCCC1)c1cc(F)c(F)cc1Cl` as the molecule, how does the inhibition read?
Answer: inactive: -1.35%

Question: For `COc1cc(OC)c(C(=O)NCC2(N(C)C)CCCCC2)cc1OC`, which inhibition is on record?
Answer: inactive: -4.7%

Question: `CN1CCC(Nc2cccc(F)c2)CC1` was tested. Which inhibition did it give?
Answer: inactive: -2.68%

Question: Which inhibition does the source give for `O=C(NCC1(N2CCCCC2)CCCCC1)c1cncc(Br)c1` here?
Answer: inactive: 5.01%

Question: For `COc1ccc(C(=O)NCC2(N3CCCCC3)CCCCC2)c(OC)c1OC`, which inhibition is on record?
Answer: inactive: 3.27%

Question: With `CC(C)(C)OC(=O)N1CCC(N(C(=O)c2ccccc2)c2ccc(F)cc2)CC1` as the molecule, how does the inhibition read?
Answer: inactive: -2.03%

Question: With `COc1ccc(C(=O)NCC2(N3CCCCC3)CCCCC2)cc1` as the molecule, how does the inhibition read?
Answer: inactive: -0.307%

Question: How did the inhibition turn out when `O=C(NCC1(N2CCCCC2)CCCCC1)c1cccs1` was run?
Answer: inactive: 15.6%

Question: Which inhibition does the source give for `O=C(NCC1(N2CCCCC2)CCCCC1)c1ccc(=O)[nH]c1` here?
Answer: inactive: -0.236%

Question: Which inhibition does the source give for `CSc1ccccc1C(=O)NCC1(N2CCCCC2)CCCCC1` here?
Answer: inactive: 1.78%

Question: With `Cc1cc(C)cc(N(C(=O)c2ccccc2)C2CCN(C(=O)OC(C)(C)C)CC2)c1` as the molecule, how does the inhibition read?
Answer: inactive: 0.404%

Question: Which inhibition does the source give for `O=C(NCC1(N2CCCCC2)CCCCC1)c1ccc(Cl)nc1` here?
Answer: inactive: 22.9%

Question: Which inhibition does the source give for `O=C(NCC1(N2CCOCC2)CCCCC1)c1cc2ccccc2o1` here?
Answer: inactive: -1.41%

Question: For `COc1ccc(Cl)cc1C(=O)NCC1(N2CCOCC2)CCCCC1`, which inhibition is on record?
Answer: inactive: -1.82%

Question: How did the inhibition turn out when `N#CC1(Nc2ccccc2)CCN(Cc2ccccc2)CC1` was run?
Answer: inactive: -2.27%

Question: How did the inhibition turn out when `O=C(NCC1(N2CCCCC2)CCCCC1)c1ccc(Cl)s1` was run?
Answer: inactive: -2.13%

Question: With `O=C(OC1CN2CCC1CC2)C1c2ccccc2Oc2ccccc21` (configuration not stated) as the molecule, how does the inhibition read?
Answer: inactive: -3.13%

Question: With `CCOC(=O)N1CCC(Nc2ccc(OC)cc2)CC1` as the molecule, how does the inhibition read?
Answer: inactive: 0.275%

Question: For `CCOc1ccc(C)cc1CN(CCCl)CCCl`, which inhibition is on record?
Answer: inactive: -3.81%

Question: For `COc1ccc(NC2CCN(CCc3ccccc3)CC2)c(OC)c1`, which inhibition is on record?
Answer: inactive: -2.08%

Question: With `CCOC(=O)N1CCC(Nc2ccc(F)cc2)CC1` as the molecule, how does the inhibition read?
Answer: inactive: 4.27%

Question: For `CCCCOc1ccc(C(=O)NCC2(N3CCOCC3)CCCCC2)cc1`, which inhibition is on record?
Answer: inactive: 1.24%

Question: Which inhibition does the source give for `O=C(NCC1(N2CCCCC2)CCCCC1)c1ccc(F)cc1` here?
Answer: inactive: -0.269%

Question: With `Cc1ccc(OCC(C)C)c(CN(CCCl)CCCl)c1` as the molecule, how does the inhibition read?
Answer: inactive: -1.08%

Question: `CCOC(=O)N1CCC(Nc2cccc(C)c2)CC1` was tested. Which inhibition did it give?
Answer: inactive: -7.07%

Question: How did the inhibition turn out when `COc1cc(OC)cc(C(=O)NCC2(N3CCCCC3)CCCCC2)c1` was run?
Answer: inactive: 5.24%

Question: For `Fc1ccccc1NC1CCN(Cc2ccccc2)CC1`, which inhibition is on record?
Answer: inactive: -1.85%

Question: How did the inhibition turn out when `Cc1ccc(C(=O)NCC2(N3CCCCC3)CCCCC2)o1` was run?
Answer: inactive: -2.38%

Question: `CCN1CCC(Nc2cccc(F)c2)CC1` was tested. Which inhibition did it give?
Answer: inactive: -3.29%

Question: With `CN(C)c1ccc(C(=O)NCC2(N3CCCCC3)CCCCC2)cc1` as the molecule, how does the inhibition read?
Answer: inactive: -0.451%

Question: Which inhibition does the source give for `O=C(NCC1(N2CCCCC2)CCCCC1)c1ccco1` here?
Answer: inactive: 2.32%

Question: Which inhibition does the source give for `CN1CCC(Nc2ccc(F)c(Cl)c2)CC1` here?
Answer: inactive: -3.33%

Question: For `CCOc1ncccc1C(=O)NCC1(N2CCOCC2)CCCCC1`, which inhibition is on record?
Answer: inactive: 2.6%

Question: How did the inhibition turn out when `O=C(O)C1(Nc2ccccc2)CCN(Cc2ccccc2)CC1` was run?
Answer: inactive: -4.15%

Question: How did the inhibition turn out when `CC(C)(C)OC(=O)N1CCC(Nc2ccccc2)CC1` was run?
Answer: inactive: 0.693%

Question: How did the inhibition turn out when `CCCOc1ccc(C(=O)NCC2(N(C)C)CCCCC2)cc1` was run?
Answer: inactive: 0.211%

Question: With `COc1cc(OC)cc(C(=O)NCC2(N3CCOCC3)CCCCC2)c1` as the molecule, how does the inhibition read?
Answer: inactive: -4.18%

Question: With `COc1cccc(C(=O)N(c2cc(C)cc(C)c2)C2CCN(C(=O)OC(C)(C)C)CC2)c1` as the molecule, how does the inhibition read?
Answer: inactive: -2.06%

Question: With `CCC(CO)(C(=O)OC1CN2CCC1CC2)c1ccccc1` (configuration not stated) as the molecule, how does the inhibition read?
Answer: inactive: 2.29%

Question: `CN1CCC(Nc2ccc(Cl)cc2)CC1` was tested. Which inhibition did it give?
Answer: inactive: -9.7%

Question: With `CCCOc1ccc(C)cc1CN(CCCl)CCCl` as the molecule, how does the inhibition read?
Answer: inactive: -3.31%

Question: For `COc1cc(C(=O)NCC2(N3CCOCC3)CCCCC2)cc(OC)c1C`, which inhibition is on record?
Answer: inactive: 5.26%

Question: Which inhibition does the source give for `O=C(NCC1(N2CCOCC2)CCCCC1)c1cc(Br)ccc1Cl` here?
Answer: inactive: -2.49%

Question: How did the inhibition turn out when `COc1ccc(C(=O)NCC2(N3CCOCC3)CCCCC2)cc1OC` was run?
Answer: inactive: -0.988%

Question: `CCOC(=O)N1CCC(Nc2ccc(C)cc2)CC1` was tested. Which inhibition did it give?
Answer: inactive: -7.67%

Question: For `N/C(=N\O)c1c(N)no[n+]1[O-]`, which inhibition is on record?
Answer: inactive: -2.49%

Question: `CCc1cc(C(=O)NCC2(N3CCCCC3)CCCCC2)sc1C` was tested. Which inhibition did it give?
Answer: inactive: -4.32%

Question: For `O=C(OC1CN2CCC1CC2)C1c2ccccc2C=Cc2ccccc21` (configuration not stated), which inhibition is on record?
Answer: inactive: -0.776%

Question: Which inhibition does the source give for `N#Cc1ccc(C(=O)NCC2(N3CCCCC3)CCCCC2)cc1` here?
Answer: inactive: 2.09%

Question: `CC(C)(C)OC(=O)N1CCC(N(C(=O)c2ccccc2)c2ccc(Cl)cc2)CC1` was tested. Which inhibition did it give?
Answer: inactive: -3.76%

Question: For `CN(C)C1(CNC(=O)c2cccc(C#N)c2)CCCCC1`, which inhibition is on record?
Answer: inactive: 1.35%

Question: With `CCCN1CCC(Nc2cc(OC)cc(OC)c2)CC1` as the molecule, how does the inhibition read?
Answer: inactive: -5.54%

Question: Which inhibition does the source give for `c1ccc(CN2CCC(Nc3ccccc3)CC2)cc1` here?
Answer: inactive: -1.66%
